The experiment concerns the target Sodium-dependent dopamine transporter (Rattus norvegicus, UniProt P23977). In words: Inhibitory activity against radioligand [3H]WIN-35428 binding at the dopamine transporter.

Chains of the proteins cited; added tags and fusions are not shown.
UniProt P23977, whole entry: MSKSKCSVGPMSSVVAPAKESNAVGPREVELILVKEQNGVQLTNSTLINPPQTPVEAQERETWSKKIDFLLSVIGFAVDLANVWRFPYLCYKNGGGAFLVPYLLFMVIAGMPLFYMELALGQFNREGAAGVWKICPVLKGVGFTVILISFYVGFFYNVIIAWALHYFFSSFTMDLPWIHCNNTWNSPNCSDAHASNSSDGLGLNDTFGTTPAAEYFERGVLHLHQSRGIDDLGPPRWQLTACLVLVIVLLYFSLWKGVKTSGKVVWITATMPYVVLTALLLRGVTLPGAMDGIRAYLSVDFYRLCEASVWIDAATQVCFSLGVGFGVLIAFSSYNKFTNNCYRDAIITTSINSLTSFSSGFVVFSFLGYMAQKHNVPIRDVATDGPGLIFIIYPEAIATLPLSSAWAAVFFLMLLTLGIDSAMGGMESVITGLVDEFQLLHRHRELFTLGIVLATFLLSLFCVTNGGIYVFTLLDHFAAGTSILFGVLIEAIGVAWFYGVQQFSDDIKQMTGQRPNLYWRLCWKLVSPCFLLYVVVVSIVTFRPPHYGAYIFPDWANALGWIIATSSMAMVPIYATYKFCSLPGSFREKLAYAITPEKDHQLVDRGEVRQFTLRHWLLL

For `CN1[C@@H]2CC[C@H]1C(c1ccccc1)C(c1ccccc1)C2` (mixture of isomers; form 2), the IC50 (commonly the concentration that gives 50% inhibition) was 1.27 µM.
